Protein sequences, listed by entry. Tags and fused reporters are not part of them. Lines headed by an entry give the natural chain unless they say otherwise; changes in a name come on top. Residues count along the entry.
UniProt P00533, 25-1210 limits assumed: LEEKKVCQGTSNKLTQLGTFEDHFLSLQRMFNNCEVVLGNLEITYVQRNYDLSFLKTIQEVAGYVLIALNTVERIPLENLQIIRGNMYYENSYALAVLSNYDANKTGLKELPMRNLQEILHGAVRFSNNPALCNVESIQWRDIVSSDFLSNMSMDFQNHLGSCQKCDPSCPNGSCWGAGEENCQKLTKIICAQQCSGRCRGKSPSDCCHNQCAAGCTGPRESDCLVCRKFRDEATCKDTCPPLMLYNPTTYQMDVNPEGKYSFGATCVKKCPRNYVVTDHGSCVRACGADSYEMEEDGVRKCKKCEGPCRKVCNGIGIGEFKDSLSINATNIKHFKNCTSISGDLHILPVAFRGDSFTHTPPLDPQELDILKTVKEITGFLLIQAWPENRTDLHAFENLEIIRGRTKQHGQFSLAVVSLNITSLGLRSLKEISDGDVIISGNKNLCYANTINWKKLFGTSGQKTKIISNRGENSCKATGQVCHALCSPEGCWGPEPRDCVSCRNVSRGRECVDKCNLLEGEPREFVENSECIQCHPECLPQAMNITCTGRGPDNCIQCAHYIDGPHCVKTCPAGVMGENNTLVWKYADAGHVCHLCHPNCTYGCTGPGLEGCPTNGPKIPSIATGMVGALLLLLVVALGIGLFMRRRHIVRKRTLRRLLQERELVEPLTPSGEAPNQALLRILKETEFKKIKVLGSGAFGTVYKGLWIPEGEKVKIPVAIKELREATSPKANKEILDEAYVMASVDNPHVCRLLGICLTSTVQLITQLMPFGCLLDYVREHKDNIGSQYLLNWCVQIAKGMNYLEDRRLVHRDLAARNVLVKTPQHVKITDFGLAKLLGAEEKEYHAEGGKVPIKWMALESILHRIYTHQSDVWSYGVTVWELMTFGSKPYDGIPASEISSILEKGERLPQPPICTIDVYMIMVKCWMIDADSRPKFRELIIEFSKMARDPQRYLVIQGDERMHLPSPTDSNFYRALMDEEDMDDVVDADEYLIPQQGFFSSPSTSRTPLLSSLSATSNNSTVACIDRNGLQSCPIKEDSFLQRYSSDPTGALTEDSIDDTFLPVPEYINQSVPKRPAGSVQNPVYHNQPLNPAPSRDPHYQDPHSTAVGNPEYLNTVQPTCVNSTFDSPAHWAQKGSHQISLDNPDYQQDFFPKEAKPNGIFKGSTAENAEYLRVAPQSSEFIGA
UniProt P00533, 25-1210 T790M/L858R limits assumed: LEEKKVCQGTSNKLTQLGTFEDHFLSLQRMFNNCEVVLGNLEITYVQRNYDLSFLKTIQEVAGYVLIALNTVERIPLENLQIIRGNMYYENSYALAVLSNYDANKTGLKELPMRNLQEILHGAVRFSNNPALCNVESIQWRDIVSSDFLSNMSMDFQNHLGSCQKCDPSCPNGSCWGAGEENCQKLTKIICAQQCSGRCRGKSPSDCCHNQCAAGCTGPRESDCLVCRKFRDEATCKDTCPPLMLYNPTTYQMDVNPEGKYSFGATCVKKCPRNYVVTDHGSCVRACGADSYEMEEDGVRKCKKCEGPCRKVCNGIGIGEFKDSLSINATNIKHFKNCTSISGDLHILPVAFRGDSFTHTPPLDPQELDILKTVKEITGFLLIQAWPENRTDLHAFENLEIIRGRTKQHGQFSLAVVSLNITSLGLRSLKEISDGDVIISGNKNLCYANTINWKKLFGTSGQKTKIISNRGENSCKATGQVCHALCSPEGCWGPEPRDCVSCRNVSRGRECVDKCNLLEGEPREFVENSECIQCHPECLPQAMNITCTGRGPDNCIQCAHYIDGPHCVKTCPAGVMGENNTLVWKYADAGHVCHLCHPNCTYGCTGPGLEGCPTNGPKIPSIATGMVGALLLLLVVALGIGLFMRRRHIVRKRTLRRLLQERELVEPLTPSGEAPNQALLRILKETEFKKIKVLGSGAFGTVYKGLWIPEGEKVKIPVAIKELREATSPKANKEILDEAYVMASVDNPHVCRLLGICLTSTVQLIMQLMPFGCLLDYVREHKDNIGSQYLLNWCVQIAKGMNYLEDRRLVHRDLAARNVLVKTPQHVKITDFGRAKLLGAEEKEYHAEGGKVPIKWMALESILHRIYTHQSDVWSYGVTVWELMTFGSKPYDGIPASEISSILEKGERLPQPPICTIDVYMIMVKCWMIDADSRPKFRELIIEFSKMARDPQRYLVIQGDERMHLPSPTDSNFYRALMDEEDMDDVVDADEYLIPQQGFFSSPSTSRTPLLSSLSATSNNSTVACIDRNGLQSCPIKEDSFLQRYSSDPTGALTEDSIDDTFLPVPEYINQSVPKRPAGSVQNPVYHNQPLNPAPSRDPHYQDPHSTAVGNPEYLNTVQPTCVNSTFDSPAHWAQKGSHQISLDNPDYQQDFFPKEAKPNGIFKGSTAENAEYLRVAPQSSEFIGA
UniProt P00533, 25-1210 T790M/C797S/L858R limits assumed: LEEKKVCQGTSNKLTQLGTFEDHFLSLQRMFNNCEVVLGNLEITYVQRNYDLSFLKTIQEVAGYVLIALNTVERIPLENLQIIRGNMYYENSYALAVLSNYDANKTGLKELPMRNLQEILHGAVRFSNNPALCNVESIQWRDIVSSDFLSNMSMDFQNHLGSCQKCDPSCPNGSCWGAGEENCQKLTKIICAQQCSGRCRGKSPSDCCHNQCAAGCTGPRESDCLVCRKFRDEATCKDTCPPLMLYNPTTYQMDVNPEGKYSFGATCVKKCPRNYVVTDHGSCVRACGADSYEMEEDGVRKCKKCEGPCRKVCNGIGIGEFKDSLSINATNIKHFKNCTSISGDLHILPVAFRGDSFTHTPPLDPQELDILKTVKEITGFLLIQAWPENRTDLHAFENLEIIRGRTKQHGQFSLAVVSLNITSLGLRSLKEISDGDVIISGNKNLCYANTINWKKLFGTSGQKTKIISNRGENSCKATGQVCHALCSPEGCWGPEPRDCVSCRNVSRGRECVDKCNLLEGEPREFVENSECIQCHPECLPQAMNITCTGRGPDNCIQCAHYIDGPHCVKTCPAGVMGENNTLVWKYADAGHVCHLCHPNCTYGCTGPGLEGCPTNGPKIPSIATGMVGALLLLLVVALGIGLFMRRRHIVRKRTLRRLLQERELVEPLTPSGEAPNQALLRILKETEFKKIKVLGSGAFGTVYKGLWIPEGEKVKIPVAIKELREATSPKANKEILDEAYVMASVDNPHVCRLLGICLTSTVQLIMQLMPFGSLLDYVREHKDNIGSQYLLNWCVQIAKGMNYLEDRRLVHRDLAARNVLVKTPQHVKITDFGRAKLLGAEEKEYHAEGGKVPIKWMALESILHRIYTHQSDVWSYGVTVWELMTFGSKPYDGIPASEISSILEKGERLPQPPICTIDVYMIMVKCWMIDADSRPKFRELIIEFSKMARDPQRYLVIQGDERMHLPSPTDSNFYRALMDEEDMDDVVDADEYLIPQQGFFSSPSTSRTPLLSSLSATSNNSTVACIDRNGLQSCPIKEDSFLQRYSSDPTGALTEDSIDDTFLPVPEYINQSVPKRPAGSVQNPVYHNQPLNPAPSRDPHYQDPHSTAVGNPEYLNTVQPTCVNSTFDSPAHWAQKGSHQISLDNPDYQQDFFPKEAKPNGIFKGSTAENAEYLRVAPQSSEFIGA

According to patent publication US20260137703A1:

Tests used:
[1] = target: Phospho-EGFR (Tyr1068) in H1975 cells (Homo sapiens, UniProt P00533, L858R/T790M); assay: HTRF pEGFR/total EGFR in H1975 cells; conditions: read-out: H1975, ratio pEGFR/total EGFR, compound 3 hours
[2] = target: Phospho-EGFR (Tyr1068) in H1975 C797S cells (CRISPR-edited EGFR C797S) (Homo sapiens, UniProt P00533, C797S/L858R/T790M); assay: HTRF pEGFR/total EGFR in H1975 C797S cells; conditions: read-out: H1975-C797S, ratio pEGFR/total EGFR, compound 3 hours
[3] = target: Phospho-EGFR (Tyr1068) in A431 cells (Homo sapiens, UniProt P00533); assay: HTRF pEGFR/total EGFR in A431 cells with EGF stimulation; conditions: read-out: A431, ratio pEGFR/total EGFR, compound 2.5 hours then 100 ng/ml EGF 30 mins

Measured: IC50

C#Cc1cc(=O)n(-c2ccccc2)c2nc(NC3CCN(C4CCN(C)CC4)CC3)ncc12
> 3 µM: all assays above
